# Reference: PubChem BioAssay AID602346 (Broad Institute, 2012)
# The list shows a part of the results, in another mix than the full data. Some results for these compounds are left out of this collection, so the calls shown say nothing about other tests. The source made the active and inactive calls. No stated cut-off is given here; in the data, active means inhibition above about 50% (passing the limit was not always enough); inconclusive means no clear call, values can overlap the other calls; inactive means below about 31%.
# Assay: HIV Vif self-association inhibitors, primary screen, imaging, HEK293T, single point (AID 602346)
# Conditions: HEK293T cells, Vif self-association by quenched fluorescence, 24 h, at 7.49 µM, stronger effect = higher value
row,SMILES,inhibition
1,CC(C)Oc1ccc(C(=O)NCC2(N(C)C)CCCCC2)cc1,inactive: 1.37%
2,O=C(OCCN1CCCC1)C(O)(c1ccccc1)c1ccccc1,inactive: 1.11%
3,CN(C)c1cccc(C(=O)NCC2(N(C)C)CCCCC2)c1,inactive: 2.69%
4,C=C(C)C#CC(O)(C(=O)OC1CCN(C)CC1)c1ccccc1 (centres undefined),inactive: -2.37%
5,COc1ccc(Br)c(C(=O)NCC2(N3CCCCC3)CCCCC2)c1,inactive: -5.49%
6,O=C(OC1CN2CCC1CC2)C(CO)(c1ccccc1)c1ccccc1 (centres undefined),inactive: -2.32%
7,O=C(NCC1(N2CCCCC2)CCCCC1)c1cccc(Cl)c1,inactive: -3.14%
8,COc1cccc(C(=O)NCC2(N3CCCCC3)CCCCC2)c1,inactive: 5.98%
9,COc1ccc(Cl)cc1C(=O)NCC1(N(C)C)CCCCC1,inactive: -4.26%
10,CN(C)C1(CNC(=O)c2ccc(Br)cc2)CCCCC1,inactive: 2.36%
11,COc1ccc(C(=O)NCC2(N(C)C)CCCCC2)cc1,inactive: 4.08%
12,Cc1cc(C(=O)NCC2(N3CCCCC3)CCCCC2)ccc1[N+](=O)[O-],inactive: -9.72%
13,CCN1CCCC(OC(=O)C2(O)c3ccccc3C=Cc3ccccc32)C1 (centres undefined),inactive: 4.26%
14,O=C(NCC1(N2CCCCC2)CCCCC1)c1cccc(Br)c1,inactive: -3.59%
15,C=CCN1CCN(CCOC(=O)C(O)(c2ccccc2)c2ccccc2)CC1,inactive: 1.97%
16,O=C(NCC1(N2CCCCC2)CCCCC1)c1cc(F)c(F)cc1Cl,inactive: 5.02%
17,Cc1ccccc1C(=O)NCC1(N2CCCCC2)CCCCC1,inactive: 0.813%
18,CN(C)C1CCCC1OC(=O)C(O)(c1ccccc1)c1ccccc1 (centres undefined),inactive: 11.9%
19,CN(C)c1ccc(C(=O)NCC2(N(C)C)CCCCC2)cc1,inactive: 4.3%
20,Cc1ccc(C(=O)NCC2(N3CCCCC3)CCCCC2)cc1,inactive: -1.85%
21,CCN(CC)CC(C)C(C)OC(=O)C(O)(c1ccccc1)c1ccccc1 (centres undefined),inactive: 5%
22,CC(C)N1C(=O)CC2(CCN(CCOC(=O)C(O)(c3ccccc3)c3ccccc3)CC2)C1=O,inactive: -0.947%
23,CN1[C@@H]2CC[C@H]1CC(OC(=O)C(O)(c1ccccc1)c1ccccc1)C2 (some centres undefined),inactive: 9.4%
24,O=C(NCC1(N2CCCCC2)CCCCC1)c1cc([N+](=O)[O-])ccc1Cl,inactive: 7.81%
